Only a part is listed here, and it is no random draw. Some structures show a salt or complex split into parts, the way the source records it. The source made the active and inactive calls. No stated cut-off is given here; in the data, active means activation above about 7.8%; inactive means the rest.

This assay is described as follows: SMARCA2 (BRM) function activators, primary screen, cell-based, luminescence, high throughput (AID 652017).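 Further: 0% = vehicle wells and 100% = reference activator wells.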 The settings on record: MG213 cells, MMTV-luciferase reporter, dexamethasone, overnight; at 9.1 µM; hits give high values. On the technique in general: Reporter assays use an easily measured gene product as a stand-in for the process of interest.
With `CCN(CC)CCCNc1ccccc1[N+](=O)[O-].O=[N+]([O-])c1cc([N+](=O)[O-])c(O)c([N+](=O)[O-])c1`, the activation is inactive: -0.58%.
Next, `COc1ccc(OP(C)(=O)Nc2ccc(SC(F)(F)F)cc2)cc1` (stereo not drawn): inactive: -2.83%.
Consider `CCOC(=O)c1ccc(NP(C)(=O)Oc2ccc(F)cc2)cc1` (stereo not drawn), for which the activation is inactive: 3.73%.
`CCN(CC)CCCOC(=O)C(O)(c1ccccc1)C1CCCCC1` (stereo not drawn): the activation was inactive: -0.03%.
As to `Cc1c([N+](=O)[O-])cc([N+](=O)[O-])c(Br)c1[N+](=O)[O-]`, the activation was inactive: 2.09%.
The same measure for `O=[N+]([O-])c1cc([N+](=O)[O-])c(OC2CCCCC2O)c([N+](=O)[O-])c1` (stereo not drawn): inactive: -2.71%.
As to `CCCCCOc1ccc(NP(C)(=O)Oc2ccc(Cl)cc2Cl)cc1` (stereo not drawn), the activation was inactive: -1.01%.
Next, `CP(=O)(Nc1ccccc1)Oc1ccc(F)cc1` (stereo not drawn): inactive: -0.93%; `O=[N+]([O-])c1cc([N+](=O)[O-])c(Nc2ccc(Cl)cc2)c([N+](=O)[O-])c1`: inactive: -12%; `CC(C)c1ccc(OP(C)(=O)Nc2ccc(SC(F)(F)F)cc2)cc1` (stereo not drawn): inactive: -4.77%.
For `CP(=O)(Nc1ccccc1F)Oc1ccccc1` (stereo not drawn), the activation was inactive: -3.25%.
For the compound `O=C(OCCN1CCN(CCOCc2ccccc2)CC1)C(O)(c1ccccc1)c1ccccc1`, the activation was inactive: 1.1%.
Take `O=C(OC1CN2CCC1CC2)c1ccc([N+](=O)[O-])cc1` (stereo not drawn): the activation was inactive: -2.99%.
Consider `COc1ccc2c(c1O)-c1c(O)c(OC)cc3c1[C@H](C2)[N+](C)(C)CC3.O=[N+]([O-])c1cc([N+](=O)[O-])c([O-])c([N+](=O)[O-])c1[O-]`, for which the activation is inactive: 1.9%.
As for `CP(=O)(Nc1ccc(SC(F)(F)F)cc1)Oc1ccc(F)cc1` (stereo not drawn), the activation was inactive: -4.32%.
Next, `CCOP(=O)(CC)OCC`: inactive: -7.07%; `CCOP(C)(=S)SCC(=O)NC(C)(CC)C(=O)O` (stereo not drawn): inactive: -3.45%.
For `CP(=O)(Nc1ccc2c(c1)OCCO2)Oc1ccccc1` (stereo not drawn), the activation is inactive: 0.72%.
Next, `O=[N+]([O-])c1cc([N+](=O)[O-])c(C(F)(F)F)c([N+](=O)[O-])c1O`: inactive: -2.85%; `Cc1ccccc1NP(C)(=O)Nc1ccccc1C`: inactive: 2.12%.
Take `COc1ccc(OP(C)(=O)Nc2cccc(Br)c2)cc1` (stereo not drawn): the activation is inactive: -1.17%.
With `COc1ccc(NP(C)(=O)Oc2ccccc2OC)cc1` (stereo not drawn), the activation is inactive: 1.13%.
For `CN(C)CCOC(=O)C(O)(c1ccccc1)C1CCCCC1` (stereo not drawn), the activation is inactive: -7%.
In the case of `O=[N+]([O-])c1cc([N+](=O)[O-])c(NCC2CCS(=O)(=O)C2)c([N+](=O)[O-])c1` (stereo not drawn), the activation is inactive: 5.66%.
For `Cc1cc(-c2cccc3ccccc23)c(C)cn1.O=[N+]([O-])c1cc([N+](=O)[O-])c(O)c([N+](=O)[O-])c1`, the activation is inactive: 3.34%.
Regarding `O=[N+]([O-])c1ccc(OP2(=O)COCCO2)cc1` (stereo not drawn), the activation is inactive: -1.48%.
For `Cc1c(C(c2ccc3c(c2)OCO3)c2c(C)n(C)n(-c3ccccc3)c2=O)c(=O)n(-c2ccccc2)n1C.O=[N+]([O-])c1cc([N+](=O)[O-])c(O)c([N+](=O)[O-])c1`, the activation was inactive: -2.47%.
As for `Nc1ccc2c(ccc3cccnc32)n1.O=[N+]([O-])c1cc([N+](=O)[O-])c(O)c([N+](=O)[O-])c1`, the activation is inactive: 3.78%.
Consider `CP(=O)(OC12CC3CC(CC(C3)C1)C2)OC12CC3CC(CC(C3)C1)C2`, for which the activation was inactive: -3.58%.
Take `CCOC(=O)c1ccc(NP(C)(=O)Oc2ccc(Cl)cc2)cc1` (stereo not drawn): the activation is inactive: -1.75%.
As to `COc1ccc(OP(C)(=O)Nc2ccc(Br)cc2)cc1` (stereo not drawn), the activation was inactive: 2.16%.
Take `CCN(CC)CC(O)COC(=O)C(O)(c1ccccc1)C1CCCCC1` (stereo not drawn): the activation was inactive: 1.19%.
Regarding `CCc1ccc(OP(C)(=O)Nc2cccnc2)cc1` (stereo not drawn), the activation was inactive: -2.94%.
The same measure for `CP(=O)(Oc1ccccc1)N1CCOC1=O` (stereo not drawn): inactive: -0.08%; for `O=C(OCCCN1CCCC1)C(O)(c1ccccc1)C1CCCCC1` (stereo not drawn): inactive: -3.3%.
The same measure for `COc1ccccc1OP(C)(=O)Nc1c(C)n(C)n(-c2ccccc2)c1=O` (stereo not drawn): inactive: -1.56%.
On to `CP(=O)(Nc1ccc(Cl)cc1)Oc1ccc(F)cc1` (stereo not drawn), for which the activation is inactive: -1.84%.
As for `CC(C)(C)c1ccc(OP(C)(=O)O)cc1`, the activation is inactive: 0.58%.
Take `COc1ccccc1OP(C)(=O)Nc1ccccc1Br` (stereo not drawn): the activation was inactive: -0.11%.
Consider `CN(C)C(=O)c1c([N+](=O)[O-])cc([N+](=O)[O-])cc1[N+](=O)[O-]`, for which the activation was active: 8.31%.
On to `COc1ccccc1OP(C)(=O)Nc1ccc(Br)cc1` (stereo not drawn), for which the activation was inactive: 0.52%.
For the compound `CN(C)CCOC(=O)C(O)(c1ccccc1)C1CCCC1` (stereo not drawn), the activation is inactive: 2.1%.
Next, `COc1ccc(OP(C)(=O)Nc2ccccn2)cc1` (stereo not drawn): inactive: -1.98%; `O=[N+]([O-])c1cc([N+](=O)[O-])c(Nc2ccccn2)c([N+](=O)[O-])c1`: inactive: -2.36%.
Next, `Cc1c(NP(C)(=O)Oc2ccc(C(C)C)cc2)c(=O)n(-c2ccccc2)n1C` (stereo not drawn): inactive: 0.4%; `CCc1ccc(OP(C)(=O)O)cc1`: inactive: 1.41%.
On to `COc1ccccc1OP(C)(=O)Nc1ccc(C)cc1C` (stereo not drawn), for which the activation is inactive: -2.47%.
For `CP(=O)(Nc1ccccn1)Oc1ccccc1` (stereo not drawn), the activation was inactive: 0.34%.
With `Cc1cc(C)cc(OP(C)(=O)Nc2cccc(C(F)(F)F)c2)c1` (stereo not drawn), the activation was inactive: 0.1%.
Consider `O=C1C(O)=C([N+](=O)[O-])C(=O)C(O)=C1[N+](=O)[O-]`, for which the activation was inactive: -3.34%.
As to `COc1ccc(OP(C)(=O)Nc2ccccc2Br)cc1` (stereo not drawn), the activation is inactive: -0.75%.
For the compound `COc1ccccc1OP(C)(=O)Nc1ccc(C)c(C)c1` (stereo not drawn), the activation was inactive: 0.22%.
As to `CP(=O)(OCCOc1ccccc1)OCCOc1ccccc1`, the activation was inactive: -4.26%.
Regarding `CP(=O)(Nc1ccc(Cl)cc1Cl)Oc1ccccc1` (stereo not drawn), the activation was inactive: -2.53%.
On to `CCCCCCCCCCCCCCCC1C[N+](C)(C)CCOP(C)(=O)O1` (stereo not drawn), for which the activation was inactive: -2.4%.
As for `O=[N+]([O-])c1cc([N+](=O)[O-])c(Nc2cccnc2)c([N+](=O)[O-])c1`, the activation is inactive: -1.25%.
In the case of `Cc1cccc(C)c1OP(C)(N)=O` (stereo not drawn), the activation is inactive: -1.16%.
As for `CC(C)(C)c1ccc(OP(C)(=O)Nc2ccc(SC(F)(F)F)cc2)cc1` (stereo not drawn), the activation was inactive: -1.49%.
Consider `O=[N+]([O-])c1ccc2c(c1)C=Nc1ccccc1O2`, for which the activation was inactive: 0.78%.
The same measure for `CCOC(=O)c1ccc(NP(C)(=O)Oc2ccccc2)cc1` (stereo not drawn): inactive: -3.09%; for `Cc1ccc(NP(C)(=O)Oc2ccccc2)c(C)c1` (stereo not drawn): inactive: -2.28%.
Next, `COc1ccccc1OP(C)(=O)Nc1ccc(C)cc1` (stereo not drawn): inactive: -2.96%.
As to `COc1ccc(OP(C)(=O)Nc2cccc(F)c2)cc1` (stereo not drawn), the activation is inactive: -0.95%.
The same measure for `COc1ccccc1OP(C)(=O)Nc1cc(Cl)ccc1C` (stereo not drawn): inactive: 1.59%.
For the compound `Cc1cc(C)cc(OP(C)(N)=O)c1` (stereo not drawn), the activation was inactive: -3.05%.
Consider `CCN(CC)CCCOC(=O)C(O)(c1ccccc1)c1ccccc1`, for which the activation is inactive: -2.61%.
Next, `COc1ccccc1-c1ccccn1.O=[N+]([O-])c1cc([N+](=O)[O-])c(O)c([N+](=O)[O-])c1`: inactive: 0.95%; `CP(=O)(Oc1ccccc1)OC(c1ccccc1)C(F)(F)F` (stereo not drawn): inactive: -2.19%; `CP(=O)(Nc1ccc(SC(F)(F)F)cc1)Oc1ccc(Cl)cc1` (stereo not drawn): inactive: -6.76%.
The same measure for `Cc1cccc(C)c1OP(C)(=O)Nc1ccc(SC(F)(F)F)cc1` (stereo not drawn): inactive: 1.84%; for `Cc1cc(C)cc(OP(C)(=O)Nc2ccc(SC(F)(F)F)cc2)c1` (stereo not drawn): inactive: -1.66%.
With `CCc1ccc(OP(C)(=O)N2CCN(c3ccc([N+](=O)[O-])cc3)CC2)cc1` (stereo not drawn), the activation is inactive: -5.07%.
For `CP(=O)(NC(=O)Nc1ccccc1)Oc1ccccc1` (stereo not drawn), the activation is inactive: 0.7%.
With `CCOP(C)(=S)SCC(=O)NC(C)C(=O)O` (stereo not drawn), the activation was inactive: 1.15%.
Consider `O=[N+]([O-])c1cc([N+](=O)[O-])c(O)c([N+](=O)[O-])c1.c1ccc(Oc2ccncc2)cc1`, for which the activation was inactive: -0.18%.
`CCOC(=O)c1ccc(NP(C)(=O)Oc2ccc(OC)cc2)cc1` (stereo not drawn): the activation was inactive: -2.11%.
With `CP(=O)(Nc1ccccn1)Oc1ccc(Cl)cc1` (stereo not drawn), the activation was inactive: -1.53%.
In the case of `CP(=S)(Nn1cnnc1)Oc1ccccc1` (stereo not drawn), the activation was inactive: 2.31%.
Next, `COc1ccccc1OP(C)(=O)Nc1ccccc1` (stereo not drawn): inactive: 3.16%; `CCOC(=O)C(CC)C1=NC(C)(C)Cc2ccccc21.O=[N+]([O-])c1cc([N+](=O)[O-])c(O)c([N+](=O)[O-])c1` (stereo not drawn): inactive: 0.63%; `O=[N+]([O-])c1cc([N+](=O)[O-])c(Nc2nnnn2CCO)c([N+](=O)[O-])c1`: inactive: -1.51%.
On to `CN1CCCCC1COC(=O)C1(O)c2ccccc2CCc2ccccc21` (stereo not drawn), for which the activation was inactive: -2.91%.
Turning to `COc1ccccc1OP(C)(=O)Nc1c(C)cccc1C` (stereo not drawn), the activation is inactive: 1.08%.
Take `CP(=O)(Nc1ccc(SC(F)(F)F)cc1)Oc1ccccc1` (stereo not drawn): the activation is inactive: -2.24%.
Next, `CCCOc1ccc(NP(C)(=O)Oc2ccc(Cl)cc2)cc1` (stereo not drawn): inactive: 4.03%; `COc1ccc(-c2ccccn2)cc1.O=[N+]([O-])c1cc([N+](=O)[O-])c(O)c([N+](=O)[O-])c1`: inactive: -2.69%; `O=[N+]([O-])c1cc([N+](=O)[O-])c(-n2nnc3ccccc32)c([N+](=O)[O-])c1`: inactive: -5.04%.
`CN(Cc1cccnc1)C(=O)COc1ccc(Cl)c(Cl)c1.O=[N+]([O-])c1cc([N+](=O)[O-])c(O)c([N+](=O)[O-])c1`: the activation is inactive: -4.16%.
The same measure for `O=[N+]([O-])c1cc([N+](=O)[O-])c(-c2cnn(-c3ccccc3)c2)c([N+](=O)[O-])c1`: inactive: -3.15%.
For the compound `Cc1nc2ccc3ccccc3c2s1.O=[N+]([O-])c1cc([N+](=O)[O-])c(O)c([N+](=O)[O-])c1`, the activation was inactive: -4.75%.
Regarding `COc1ccccc1OP(C)(=O)Nc1cccc(Br)c1` (stereo not drawn), the activation was inactive: -1.37%.
Next, `Cc1cc(C)cc(OP(C)(=O)Nc2ccc(C)cc2C)c1` (stereo not drawn): inactive: 3.94%; `CCOC(=O)c1ccc(NP(C)(=O)Oc2cc(C)cc(C)c2)cc1` (stereo not drawn): inactive: 0.67%.
For `CP(=O)(Nc1cccc(Br)c1)Oc1ccccc1` (stereo not drawn), the activation was inactive: 1.62%.
For the compound `Cc1cc(C)cc(OP(C)(=O)Nc2ccccn2)c1` (stereo not drawn), the activation was inactive: -0.45%.
`Cc1ccc(C)c(NP(C)(=O)Oc2ccccc2)c1` (stereo not drawn): the activation was inactive: -1.89%.
On to `O=C(O)c1cccc(Nc2c([N+](=O)[O-])cc([N+](=O)[O-])cc2[N+](=O)[O-])c1`, for which the activation was active: 9.58%.
As for `CC1=NCCc2c1[nH]c1ccccc21.O=[N+]([O-])c1cc([N+](=O)[O-])c(O)c([N+](=O)[O-])c1`, the activation was inactive: -1.86%.

Values taken from PubChem BioAssay AID652017 (The Scripps Research Institute Molecular Screening Center, 2013).
